# Assay results reported in patent US12091718B2, “Genetically encoded biosensors for detection of polyketides” (priority 2016, dated 2024).
# Protein sequences, listed by entry. Tags and fused reporters are not part of them.
# UniProt Q9EVJ6, entry or part of it, stated change not applied: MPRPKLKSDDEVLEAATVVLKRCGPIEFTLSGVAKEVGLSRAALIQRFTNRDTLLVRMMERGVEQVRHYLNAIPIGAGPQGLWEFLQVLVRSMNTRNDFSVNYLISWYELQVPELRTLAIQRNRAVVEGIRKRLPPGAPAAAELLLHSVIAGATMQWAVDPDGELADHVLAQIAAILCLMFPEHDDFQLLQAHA
# UniProt Q9EVJ6, entry or part of it S106F: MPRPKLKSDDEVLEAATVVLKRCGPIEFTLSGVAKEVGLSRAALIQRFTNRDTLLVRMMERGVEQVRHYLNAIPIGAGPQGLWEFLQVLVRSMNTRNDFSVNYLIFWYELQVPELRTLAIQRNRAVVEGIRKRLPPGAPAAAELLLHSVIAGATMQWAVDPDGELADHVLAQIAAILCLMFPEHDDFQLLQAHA
# Assays:
# Settings in all cases: Table 5
# [1] = biological target: T1, wild-type MphR with RBS mutations A1T/G2T/A3C (smRBS1A1, RBS TTCAGGT; SEQ ID NO: 53) (Escherichia coli, UniProt Q9EVJ6); assay: MphR-GFP biosensor dose-response, smRBS1A1; format: cell-based
# T1 construct: GFP reporter in E. coli
# Excerpt: (§1) The sensitivity of biosensors often requires tailoring to meet specific needs. […] A library of MphR gene mutations and variants was created by error-prone PCR (epPCR).
# [2] = biological target: wild-type MphR (MphR(A), macrolide biosensor transcription factor), SEQ ID NO: 2 (gene SEQ ID NO: 1, 28) (Escherichia coli, UniProt Q9EVJ6)
# Excerpt: as §1
# Molecular Biosystems. […] Previous literature reports various induction ranges for MphR-based biosensors depending on the plasmid construct.
# Three and five site saturation mutagenesis libraries of the MphR gene that targeted residues of the ligand binding domain were generated using the Quikchange Multi Site-Directed mutagenesis kit (Agilent) and designated QCMS3 and QCMS5, respectively. A third library was generated via error-prone PCR (epPCR) with an average of two amino acid mutations per library clone. Libraries were transformed into E. coli TOP10 cells with plasmid pJZ12 (See FIG. 16 and sequence below) containing genes MphA and mrx and subjected to an initial round of negative sorting in the absence of added ligand via Fluorescence Activated Cell Sorting (FACS) to eliminate variants that are constitutively expressing GFP.
# In Table 1, Hill functions were used to derive biosensor transfer functions. K1/2 is the inducer concentration at half maximal induction. Cooperativity is derived from the Hill function to indicate cooperative ligand binding between protein monomers of the MphR dimer. […] The linear range of detection is the linear portion of the dose-response curve with a slope R^2=0.95 or higher.
# [3] = biological target: MphR variant S106F (pikB1, D3; SEQ ID NO: 10, 38) (Escherichia coli, UniProt Q9EVJ6, S106F); format: cell-based
# Excerpt: as §1
# To test this, the aglycone 6-deoxyerythronolide B (6dEB) was produced via an engineered E. coli strain and purified by flash chromatography. […] To extend this to other systems, the ability of MphR was examined to detect macrolide antibiotics from S. venezuelae.
# The ability of the MphR clone “PikB1” to detect a Solithromycin biosynthetic intermediate (see structure below) was determined.
# [4] = biological target: T2, wild-type MphR with E7 ribosome binding site mutation only (WT E7-RBS; SEQ ID NO: 32) (Escherichia coli, UniProt Q9EVJ6); format: cell-based
# T2 construct: GFP reporter in E. coli
# Excerpt: as §1
# To confirm this, new versions of A3 and E7 were constructed that either only included the RBS mutations or the amino acids for each clone.
compound,measurement,setting,value
CC[C@H]1OC(=O)[C@H](C)C(=O)[C@H](C)[C@@H](O[C@@H]2O[C@H](C)C[C@H](N(C)C)[C@H]2O)[C@@H](C)C[C@@H](C)C(=O)/C=C/[C@]1(C)O [pikromycin],HillC,[1],2.5 ± 0.2
same,HillC,[2],2.9 ± 0.3
same,HillC,[3],1.8 ± 0.2
same,HillC,[4],2.3 ± 0.1
